Assay results: article PMC8121067, “The formin inhibitor SMIFH2 inhibits members of the myosin superfamily” (Journal of Cell Science, 2021)
Several values for one entry are separate records, joined by “and”; a condition that tells them apart may be missing. Equal entries are not always repeated.

Target: MLCK (Homo sapiens, UniProt Q15746)
Assay: myosin light chain kinase phosphorylation of non-muscle myosin 2A (HPLC-mass spectrometry)
Assay type: biochemical

**Q.** `O=C1NC(=S)N(c2cccc(Br)c2)C(=O)C1=Cc1ccco1` [SMIFH2] was tested. Which “% phosphorylated” value did it give?
**A.** 55.4% and 70.4% and 81.2%
